Holding throughout (assay): FOREST: bead pull-down of RNA structure library v1, barcode microarray; U1A/LIN28A: 20 mM HEPES pH 7.5, 80 mM KCl, 20 mM NaCl, 10% glycerol, 2 mM DTT, 0.1 ug/uL BSA, 4 C; BG4/CIRBP/DHX36: 10 mM Tris-HCl pH 7.5, 100 mM KCl (or LiCl),; high values mean tight binding
One assay addresses U1A (Homo sapiens, UniProt P09012).
In a further assay the target is T1, LIN28A (human?, UniProt Q9H9Z2 1-209).
T1 sequence: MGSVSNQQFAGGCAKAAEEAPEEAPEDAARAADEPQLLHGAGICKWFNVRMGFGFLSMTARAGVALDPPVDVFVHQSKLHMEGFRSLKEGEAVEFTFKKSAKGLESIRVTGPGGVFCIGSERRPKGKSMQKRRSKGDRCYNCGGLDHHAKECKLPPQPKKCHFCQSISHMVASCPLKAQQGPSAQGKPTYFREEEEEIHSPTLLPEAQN

The next assay concerns the target T2, CIRBP (Homo sapiens, UniProt Q14011 1-172).
T2 sequence: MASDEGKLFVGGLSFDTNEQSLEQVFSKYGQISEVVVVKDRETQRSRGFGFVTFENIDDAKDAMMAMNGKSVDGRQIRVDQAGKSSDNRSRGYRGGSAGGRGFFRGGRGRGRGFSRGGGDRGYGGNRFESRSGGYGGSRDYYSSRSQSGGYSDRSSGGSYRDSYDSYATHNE

The target in a further assay is T3, DHX36 (Homo sapiens, UniProt Q9H2U1 1-1008).
T3 sequence: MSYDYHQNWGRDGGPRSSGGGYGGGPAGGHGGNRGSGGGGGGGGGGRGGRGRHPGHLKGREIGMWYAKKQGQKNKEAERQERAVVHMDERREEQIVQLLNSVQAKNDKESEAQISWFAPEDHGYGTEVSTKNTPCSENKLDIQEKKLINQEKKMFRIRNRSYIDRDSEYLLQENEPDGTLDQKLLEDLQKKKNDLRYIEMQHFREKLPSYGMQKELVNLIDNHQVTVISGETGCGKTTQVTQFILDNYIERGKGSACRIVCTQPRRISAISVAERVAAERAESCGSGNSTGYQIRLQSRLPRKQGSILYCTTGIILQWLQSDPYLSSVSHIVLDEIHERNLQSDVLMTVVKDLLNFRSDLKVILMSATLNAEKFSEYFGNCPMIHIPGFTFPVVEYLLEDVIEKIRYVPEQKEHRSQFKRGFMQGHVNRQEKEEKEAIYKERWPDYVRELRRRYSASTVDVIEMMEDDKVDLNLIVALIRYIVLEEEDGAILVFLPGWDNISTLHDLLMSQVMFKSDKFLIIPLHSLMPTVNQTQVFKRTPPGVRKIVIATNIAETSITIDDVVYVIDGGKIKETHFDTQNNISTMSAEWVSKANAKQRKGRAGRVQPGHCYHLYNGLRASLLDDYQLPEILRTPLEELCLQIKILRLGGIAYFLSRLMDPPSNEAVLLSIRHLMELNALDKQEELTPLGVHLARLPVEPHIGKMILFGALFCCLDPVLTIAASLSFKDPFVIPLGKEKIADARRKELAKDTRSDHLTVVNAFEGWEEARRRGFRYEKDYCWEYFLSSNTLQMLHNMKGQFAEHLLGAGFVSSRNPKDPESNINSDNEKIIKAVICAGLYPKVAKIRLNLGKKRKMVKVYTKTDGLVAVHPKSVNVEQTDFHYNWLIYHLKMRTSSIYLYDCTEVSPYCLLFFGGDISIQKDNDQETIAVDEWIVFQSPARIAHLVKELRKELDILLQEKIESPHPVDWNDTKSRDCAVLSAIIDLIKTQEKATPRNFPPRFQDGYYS

This is one part of the list.

B1: hsa-mir-1911 (structured_RNA)
RNA: GGGAACUGGUAACACAGCCGUUUACAUAGGUGUACGAAGUUUCAGCGUUGGGCAUCCACAGUCUCCCACCGCUGAAGCUUCGUGCAC
For B1, the binding signal with U1A was 0.402 z-score; with LIN28A it was -1.3 z-score; with CIRBP, -0.688 z-score; with DHX36 it was -0.975 z-score.

B2: hsa-mir-3133 (structured_RNA)
RNA: GGGACAGCGUAGAGUGGUCCAAUUCAUGGGUGUACGAAGUUUCAGCCAAUAGUAAAAAGACAACCUGUUGGCUGAAGCUUCGUGCAC
With B2, the binding signal is 0.396 z-score with U1A, 0.677 z-score with LIN28A, -0.962 z-score with CIRBP and -0.685 z-score with DHX36.

B3: hsa-mir-668 (structured_RNA)
RNA: GGGACAAUAAACCGGAUUCGAAAAGCGAGGUGUACGAAGUUUCAGCAGCAUGCACUUAAUGUGGGUGUAUGUGCUGAAGCUUCGUGCAC
For the molecule B3, the binding signal with U1A was 0.394 z-score; with LIN28A it was -0.749 z-score; in the assay with CIRBP it was 0.344 z-score; with DHX36 it was -0.31 z-score.

B4: hsa-mir-6512 (structured_RNA)
RNA: GGGAUACGGUGGACCACAGAUAAUCGAUGGUGUACGAAGUUUCAGCGGAAGAAGGCUGAGGGAGAUGCCUUCUUCCGCUGAAGCUUCGUGCAC
Take B4: the binding signal with U1A worked out at 0.385 z-score; in the assay with LIN28A, 0.58 z-score; in the assay with CIRBP, 0.314 z-score; with DHX36, 0.2 z-score.

B5: hsa-mir-8060 (structured_RNA)
RNA: GGGAUCCAAGGCACGCGGAAGUAAACUUGGUGUACGAAGUUUCAGCUGGUCAGAUAUCCCAUGCUGAAGCUUCGUGCAC
Turning to B5, the binding signal in the assay with U1A was 0.388 z-score; with LIN28A, -0.181 z-score; with CIRBP it was -1.06 z-score; with DHX36 it was 0.458 z-score.

B6: hsa-mir-4714 (structured_RNA)
RNA: GGGACUACUUAGGACGCAUUGUGCGGGUGGUGUACGAAGUUUCAGCUUGAUGUCAGAAUGAGGUGUACCAAGCUGAAGCUUCGUGCAC
Turning to B6, the binding signal was 0.397 z-score with U1A, 0.613 z-score in the assay with LIN28A, -1.34 z-score with CIRBP and -0.14 z-score with DHX36.

B7: hsa-mir-655 (structured_RNA)
RNA: GGGAAACCGAGGCAUUAUAUCACACGGUGGUGUACGAAGUUUCAGCAUGUUCGCUUCAUUCAUCAUGAAUAAGCUGAAGCUUCGUGCAC
Take B7: the binding signal with U1A is 0.39 z-score; with LIN28A, 0.576 z-score; with CIRBP it was 0.208 z-score; with DHX36, -0.755 z-score.

B8: hsa-mir-600 (structured_RNA)
RNA: GGGAAGUGGACCCAACUUAAUAUUGCGCGGUGUACGAAGUUUCAGCCAGGCAGUGGAGUUACUUGCUGAAGCUUCGUGCAC
Regarding B8, the binding signal in the assay with U1A turned out to be 0.388 z-score; with LIN28A it was 2.19 z-score; with CIRBP, 1.84 z-score; with DHX36, 1.27 z-score.

B9: hsa-mir-326 (structured_RNA)
RNA: GGGCAUGUGGGUCUCACUCAUAGCGUACGGUGUACGAAGUUUCAGCAAGGCGGGUGGUGCUCAGAUCGCCUGCUGAAGCUUCGUGCAC
B9: the binding signal with U1A was 0.391 z-score; in the assay with LIN28A it was -0.0775 z-score; with CIRBP, -0.796 z-score; with DHX36 it was 1.59 z-score.

B10: hsa-mir-6887 (structured_RNA)
RNA: GGGAGGCGAUCGUACCCGUAAGAAUCGCGGUGUACGAAGUUUCAGCAGGACACAGGCUGGCACUGAGGUCCCGCUGAAGCUUCGUGCAC
As to B10, the binding signal with U1A is 0.39 z-score; with LIN28A, 0.0934 z-score; with CIRBP it was -1.78 z-score; with DHX36, -1.19 z-score.

B11: hsa-mir-617 (structured_RNA)
RNA: GGGAAAGGCGUUAUUACGUAAGGUCCCAGGUGUACGAAGUUUCAGCUGGCCAUUUCCUACCAGCUGAAGCUUCGUGCAC
As to B11, the binding signal in the assay with U1A is 0.401 z-score; with LIN28A it was -0.94 z-score; in the assay with CIRBP it was -1.6 z-score; in the assay with DHX36, -0.051 z-score.

B12: hsa-mir-4525 (structured_RNA)
RNA: GGGAACGUAUAUCCCGGAAAGUGAAACCGGUGUACGAAGUUUCAGCGGUUGGGGUGGGCUGCCUGUGGACCAAUCGCUGAAGCUUCGUGCAC
As for B12, the binding signal amounted to 0.4 z-score with U1A, 0.73 z-score with LIN28A, 0.375 z-score with CIRBP and 1.33 z-score with DHX36.

B13: hsa-mir-4307 (structured_RNA)
RNA: GGGAAAAGCAUGGACUCCCCGAGACACAGGUGUACGAAGUUUCAGCAGUUUGUGAUAAUGUUUGUCUAUAUAGUUAUGAAUGGCUGAAGCUUCGUGCAC
For B13, the binding signal is 0.4 z-score in the assay with U1A, 0.198 z-score with LIN28A, -1.11 z-score with CIRBP and -0.706 z-score in the assay with DHX36.

B14: hsa-mir-575 (structured_RNA)
RNA: GGGACAAAGUCACGUGCCCGUUUUCGAUGGUGUACGAAGUUUCAGCGCUUAUGUCAUGACCUUGGGCUACUCAGGCUGUCUGCACAAUGAGCGCUGAAGCUUCGUGCAC
B14: the binding signal was 0.402 z-score in the assay with U1A, -1.52 z-score in the assay with LIN28A, -0.84 z-score with CIRBP and -0.855 z-score with DHX36.

B15: hsa-mir-4316 (structured_RNA)
RNA: GGGACGCCGGAGGUCAAAGUCUUAGGUAGGUGUACGAAGUUUCAGCUGUGGUCACCCACUCUGCUGAAGCUUCGUGCAC
Turning to B15, the binding signal was 0.384 z-score in the assay with U1A, -0.571 z-score with LIN28A, 0.301 z-score with CIRBP and 0.242 z-score with DHX36.

B16: hsa-mir-4303 (structured_RNA)
RNA: GGGAAAGAACGCCGUCGUUUCAUACCUGGGUGUACGAAGUUUCAGCCAGCUUGCUCUGCUUUGCUGAAGCUUCGUGCAC
Regarding B16, the binding signal in the assay with U1A was 0.392 z-score; in the assay with LIN28A, -0.692 z-score; with CIRBP it was -0.17 z-score; in the assay with DHX36, -0.309 z-score.

B17: hsa-mir-770 (structured_RNA)
RNA: GGGAGAGUGCCAUUUACAAUCCUCGUGCGGUGUACGAAGUUUCAGCGCCACAUGAGCUGGGCCUCGUGGGCGCUGAAGCUUCGUGCAC
As for B17, the binding signal in the assay with U1A was 0.398 z-score; with LIN28A, 0.0505 z-score; in the assay with CIRBP it was -0.275 z-score; in the assay with DHX36, 0.228 z-score.

B18: hsa-mir-433 (structured_RNA)
RNA: GGGAUCCUGAGACAAUCGAGUAUCAAUGGGUGUACGAAGUUUCAGCUUAUUCAGAGAGGCUAGAUCCUCUGUGUUGAGAAGGAUCAGCUGAAGCUUCGUGCAC
Turning to B18, the binding signal with U1A was 0.389 z-score; with LIN28A it was 0.88 z-score; in the assay with CIRBP, -0.923 z-score; with DHX36, 0.12 z-score.

B19: hsa-mir-4644 (structured_RNA)
RNA: GGGAGAUUAGAUAAGCAGUCGAACUACGGGUGUACGAAGUUUCAGCUCCACCCUGGUCCAGGUCCACAGCAGUGGAGCUGAAGCUUCGUGCAC
For the molecule B19, the binding signal in the assay with U1A is 0.387 z-score; in the assay with LIN28A, -0.729 z-score; in the assay with CIRBP, 0.665 z-score; in the assay with DHX36, -0.723 z-score.

B20: hsa-mir-4692 (structured_RNA)
RNA: GGGACUCCAACGUUGUUCACCCAUGAUCGGUGUACGAAGUUUCAGCCUGGGUGGGACACUCAGGCUGAAGCUUCGUGCAC
On to B20, for which the binding signal is 0.382 z-score in the assay with U1A, -0.739 z-score with LIN28A, -0.468 z-score with CIRBP and -0.716 z-score with DHX36.

B21: hsa-mir-670 (structured_RNA)
RNA: GGGAAAUCAGCACUACCUGACGGAGAGGGGUGUACGAAGUUUCAGCGUGAACCUGAAUUUGCCUUGGGUUUCCUGCUGAAGCUUCGUGCAC
B21: the binding signal with U1A was 0.387 z-score; with LIN28A it was 0.661 z-score; in the assay with CIRBP it was 0.462 z-score; with DHX36, -0.224 z-score.

B22: hsa-mir-338 (structured_RNA)
RNA: GGGAACUUGCAUGACGUAUCUUCACGCGGGUGUACGAAGUUUCAGCUGAGUGAUGACUCAGGCGACUCCAGCUGAAGCUUCGUGCAC
Consider B22, for which the binding signal with U1A is 0.386 z-score; in the assay with LIN28A it was 0.448 z-score; in the assay with CIRBP, -0.843 z-score; with DHX36, -0.574 z-score.

B23: hsa-mir-4459 (structured_RNA)
RNA: GGGAGGCCCAUGUACCAACUUAGUAACGGGUGUACGAAGUUUCAGCGAGGUUGCAGUGAGCCAAGAUCGUGGCUGAAGCUUCGUGCAC
For the molecule B23, the binding signal stood at 0.397 z-score with U1A, 1.76 z-score in the assay with LIN28A, 0.218 z-score with CIRBP and 0.229 z-score with DHX36.

Values taken from PMC7723054.
